# What was measured:
# P2X purinoceptor 4 = target: T1, P2X purinoceptor 4 (Homo sapiens, UniProt Q99571); assay: Antagonist activity against recombinant human P2X purinoceptor 4 (P2X4); format: functional
# T1 sequence (Q99571 whole entry): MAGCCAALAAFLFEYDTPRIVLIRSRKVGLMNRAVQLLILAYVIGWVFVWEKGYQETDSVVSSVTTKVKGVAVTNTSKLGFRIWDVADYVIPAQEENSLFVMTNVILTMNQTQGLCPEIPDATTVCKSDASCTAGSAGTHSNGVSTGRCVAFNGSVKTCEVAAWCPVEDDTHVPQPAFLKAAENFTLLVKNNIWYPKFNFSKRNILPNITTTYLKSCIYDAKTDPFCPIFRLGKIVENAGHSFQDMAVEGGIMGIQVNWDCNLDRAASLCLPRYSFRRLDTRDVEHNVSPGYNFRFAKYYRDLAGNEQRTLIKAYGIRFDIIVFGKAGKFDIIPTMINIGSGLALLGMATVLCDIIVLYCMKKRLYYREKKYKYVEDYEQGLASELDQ
# P2X purinoceptor 3 = target: T2, P2X purinoceptor 3 (Homo sapiens, UniProt P56373); assay: Antagonist activity against recombinant human P2X purinoceptor 3 (P2X3 ); format: functional
# T2 sequence (P56373 whole entry): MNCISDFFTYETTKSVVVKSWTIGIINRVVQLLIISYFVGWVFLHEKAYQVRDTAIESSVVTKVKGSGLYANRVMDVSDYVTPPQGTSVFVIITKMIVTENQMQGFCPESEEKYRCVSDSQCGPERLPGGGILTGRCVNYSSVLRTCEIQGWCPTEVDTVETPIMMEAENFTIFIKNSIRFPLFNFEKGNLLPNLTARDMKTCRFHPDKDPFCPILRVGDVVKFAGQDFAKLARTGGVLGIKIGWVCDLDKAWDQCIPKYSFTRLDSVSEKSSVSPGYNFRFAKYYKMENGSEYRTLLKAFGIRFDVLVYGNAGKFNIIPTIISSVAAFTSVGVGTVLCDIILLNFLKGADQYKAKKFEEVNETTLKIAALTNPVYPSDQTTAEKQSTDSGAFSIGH
smiles,measurement,setting,value
Cc1nc(/N=N/c2ccc(S(=O)(=O)O)cc2S(=O)(=O)O)c(COP(=O)(O)O)c(C=O)c1O,EC50,P2X purinoceptor 4,10 µM
same,EC50,P2X purinoceptor 3,1.7 µM
